Values of other authors as cited in article PMC5976250 (The Biochemical journal, 2017).

Amino acid sequences for entries named in this document (tags omitted). A change or cut given only in a name is not applied to a line headed by its entry.
UniProt P48165: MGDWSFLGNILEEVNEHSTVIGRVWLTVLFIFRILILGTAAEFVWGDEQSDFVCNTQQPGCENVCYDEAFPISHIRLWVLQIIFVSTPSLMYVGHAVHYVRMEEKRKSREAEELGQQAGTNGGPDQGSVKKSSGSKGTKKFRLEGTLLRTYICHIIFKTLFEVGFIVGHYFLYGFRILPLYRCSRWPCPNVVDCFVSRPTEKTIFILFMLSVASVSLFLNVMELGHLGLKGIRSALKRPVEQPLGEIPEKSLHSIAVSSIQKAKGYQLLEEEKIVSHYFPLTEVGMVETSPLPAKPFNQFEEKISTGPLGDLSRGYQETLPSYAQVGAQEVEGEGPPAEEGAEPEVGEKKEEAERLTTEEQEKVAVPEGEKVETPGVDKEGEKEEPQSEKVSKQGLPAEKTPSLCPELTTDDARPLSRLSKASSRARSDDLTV

Biological target: CaM
Settings: read-out: Kd for CaM, α-family connexin peptides; presence of Ca2+; ref [2]; cited from earlier work

## Cx44p132–153: α-family connexin Cx44 peptide
  Kd: 49 ± 3 nM

## Cx50p141–166: α-family connexin Cx50 peptide (FRLEGTLLRTYICHIIFKTLFEVGFI; UniProt P48165 141-166, looked up, fragment)
  Kd: 4.9 ± 0.6 nM
